In publication PMC5668364, “Structure and functional dynamics of the mitochondrial Fe/S cluster synthesis complex” (Nature Communications, 2017):

Biological target: the molecule itself
Assay: crystal structure; (NIA)2 complex, 2.75 Å, space group R32; crystals from 100 mM MES pH 6.5, 0.3 M ammonium acetate, 20 mM calcium acetate, 20 mM CaCl2, 19% isopropanol, 12 °C

B1: human ISD11, full length, no tag (natural protein, UniProt Q9HD34 1-91, looked up)
chain: MAASSRAQVLSLYRAMLRESKRFSAYNYRTYAVRRIRDAFRENKNVKDPVEIQTLVNKAKRDLGVIRRQVHIGQLYSTDKLIIENRDMPRT
notes: human ISD11 (LYRM4), full length, plasmid pZM4; also called LYRM4; I of (NIA)2 and (NIAU)2; source: E. coli One Shot BL21 Star (DE3), co-expressed with NFS1, co-purified (Ni-NTA)
binding result: binds
